The record followed here is PubChem BioAssay AID624093 (National Center for Advancing Translational Sciences (NCATS), 2012).

This is a selection; strong and weak results do not stand in their true shares. Inconclusive results are not listed. Calls of active or inactive are those of the source. The call rests on the fitted dose curve; in most records, active means well fitted inhibition curve with a large enough effect; inconclusive means small, poorly fitted or top-dose-only effect; inactive means flat fitted curve, though single readings scatter.

This assay addresses Dual specificity tyrosine-phosphorylation-regulated kinase 1A (Homo sapiens) (UniProt Q13627). The experiment in a line: Confirmation Assay for Inhibitors of Dyrk1a (Kinase-Glo Assay): KU probe. The settings on record: Kinase-Glo ATP luminescence. An excerpt: NIH Molecular Libraries Probe Production Centers Network [MLPCN] NIH Chemical Genomics Center [NCGC] MLSCN Grant: 1R03MH084827-01 PI Name: Tom Misteli NCGC Assay Overview: The CMGC group of protein kinases which includes CDK-like kinases (Clk) and Dyks are essential kinases found in all eukaryotes. Clks have been implicated to play a role in the regulation of alternative splicing; while Dyrks, in particular over expression of Dyrk1A, has been linked to diseases as Down syndrome (DS; OMIM 190685) and Alzheimer disease (AD; OMIM 104300). Among the members of the CMGC group, the Clks and the Dyrks are very closely related therefore to determine validity and selectivity of an active compound observed in the CLK4 qHTS screen (AID:1770), a bioluminescent counter-screen against Dyrk1A was developed. […]
NCGC Assay Protocol Summary: Two uL/well of substrate solution (8uM Dyrktide, 2uM ATP, 25mM Tris-HCl pH 7.5, 10mM MgCl2 , 0.5mM EGTA, 5mM cystein, 0.01% Triton X-100 final concentration) was dispensed into 1536-well assay plates (Greiner, solid white, medium-binding plates) with Aurora Discovery BioRAPTR Flying Reagent Dispenser (FRD, Beckton-Dickenson). […] The plates were spun for 30 seconds (1000 rpm) and incubated at ambient temperature for 2 minutes followed by a luminescence read using Perkin Elmer ViewLux plate reader at 3 seconds exposure time and 2x binning.

Take `CCN1/C(=C/C(C)=O)Sc2ccc(OC)cc21`: the Potency is active: 368 nM.
